{
  "source": "paper PMC4411481",
  "about": "“Cyclic nucleotide binding and structural changes in the isolated GAF domain of Anabaena adenylyl cyclase, CyaB2” (PeerJ, 2015)",
  "tested_on": "I308A mutant GAFb domain of CyaB2",
  "assay": "Cyclic nucleotide binding assay, I308A mutant GAFb",
  "design": "species or system Anabaena sp. PCC 7120",
  "conditions": "I308A mutant vs wild type; ∼1 nM 3H-cAMP",
  "data": [
    {"substance": "2,8 [^3H]-cAMP", "values": [
      {"measurement": "reduction in binding of 3H-cAMP", "value": 50, "unit": "%"}
    ]}
  ]
}
